Reference: patent US20190112393 (published 2019)

T1: human FcγRIa (human, UniProt P12314)
T1 chain: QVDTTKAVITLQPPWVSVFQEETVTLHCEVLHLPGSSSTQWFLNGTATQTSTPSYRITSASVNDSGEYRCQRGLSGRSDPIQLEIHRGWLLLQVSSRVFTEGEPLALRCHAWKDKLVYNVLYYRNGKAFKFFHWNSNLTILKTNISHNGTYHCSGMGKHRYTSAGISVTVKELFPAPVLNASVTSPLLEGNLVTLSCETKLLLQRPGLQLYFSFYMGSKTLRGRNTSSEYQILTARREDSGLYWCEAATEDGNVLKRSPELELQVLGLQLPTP


Molecular target: T1, human FcγRIa
Test: SPR

Row | Kd [nM] | Binder
1 | 13 | BP542 (antibody) chain 1: QVQLQESGPGLVKPSETLSLTCAVSGHSISHDHAWSWVRQPPGEGLEWIGFISYSGITNYNPSLQGRVTISRDNSKNTLYLQMNSLRAEDTAVYYCARSLARTTAMDYWGEGTLVTVSSASTKGPSVFPLAPSSKSTSGGTAALGCLVKDYFPEPVTVSWNSGALTSGVHTFPAVLQSSGLYSLSSVVTVPSSSLGTQTYICNVNHKPSNTKVDKKVEPKSCDKTHTCPPCPAPDLLGDDSVFLFPPKPKDTLMISRTPEVTCVVVDVSDEDGEVKFNWYVDGVEVHNAKTKPREEQFNSTYRVVSVLTVLHQDWLNGKEYKCKVSNKALPRPIEKTISKAKGQPREPQVYTLPPSRDELTKNQVSLTCLVKGFYPSDIAVEWESNGQPENNYKTTPPVLDSDGSFFLYSKLTVDKSRWQQGNVFSCSVMHEALHNHYTQESLSLSP chain 2: not shown
2 | 9.9 | BP545 (antibody) chain 1: QVQLQESGPGLVKPSETLSLTCAVSGHSISHDHAWSWVRQPPGEGLEWIGFISYSGITNYNPSLQGRVTISRDNSKNTLYLQMNSLRAEDTAVYYCARSLARTTAMDYWGEGTLVTVSSASTKGPSVFPLAPSSKSTSGGTAALGCLVKDYFPEPVTVSWNSGALTSGVHTFPAVLQSSGLYSLSSVVTVPSSSLGTQTYICNVNHKPSNTKVDKKVEPKSCDKTHTCPPCPAPDLLGDDSVFLFPPKPKDTLMISRTPEVTCVVVDVSDEDGEVKFNWYVDGVEVHNAKTKPREEQDNSTYRVVSVLTVLHQDWLNGKEYKCKVSNKALPRPIEKTISKAKGQPREPQVYTLPPSREELTKNQVSLTCLVKGFYPSDIAVEWESNGQPENNYKTTPPVLDSDGSFFLYSKLTVDKSRWQQGNVFSCSVMHEALHNHYTQESLSLSP chain 2: not shown
